ChEMBL document CHEMBL5325398, “Design of Cytochrome P450 1B1 Inhibitors via a Scaffold-Hopping Approach” (J Med Chem, 2023)

Assays:
[1] = Selectivity index, ratio of IC50 for CYP1A1 (unknown origin) to IC50 for CYP1B1 (unknown origin)
Cytochrome P450 1A1 = target: T1, Cytochrome P450 1A1 (Homo sapiens, UniProt P04798); test: Inhibition of CYP1A1 (unknown origin) expressed in HEK293-T-REx cells co-expressing POR incubated for 1 hr by resorufin dye based plate reader analysis; assay type: ADME, cell-based
T1 sequence (P04798 whole entry): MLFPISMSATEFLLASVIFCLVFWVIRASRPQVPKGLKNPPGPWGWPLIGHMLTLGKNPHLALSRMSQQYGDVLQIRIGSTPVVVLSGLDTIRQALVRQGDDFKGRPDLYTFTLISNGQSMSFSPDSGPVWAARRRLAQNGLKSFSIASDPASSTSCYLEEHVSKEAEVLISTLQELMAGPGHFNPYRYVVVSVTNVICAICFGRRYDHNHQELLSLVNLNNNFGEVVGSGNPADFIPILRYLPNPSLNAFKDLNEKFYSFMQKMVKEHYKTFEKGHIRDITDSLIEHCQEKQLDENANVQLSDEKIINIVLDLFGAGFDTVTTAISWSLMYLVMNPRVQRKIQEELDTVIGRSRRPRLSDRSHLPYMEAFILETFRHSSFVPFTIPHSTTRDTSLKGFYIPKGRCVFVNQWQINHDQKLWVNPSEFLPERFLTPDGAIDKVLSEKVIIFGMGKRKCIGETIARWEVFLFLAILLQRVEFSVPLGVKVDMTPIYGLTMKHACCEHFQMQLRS

For `COc1ccc(OC)c2c1c(OC)cc1c(=O)cc(-c3cccc(F)c3)oc12`, the “Ratio IC50” value [1] was 279.
`COc1ccc(-c2nc(-c3ccc(O)cc3)cs2)c(OC)c1` showed an IC50 (Cytochrome P450 1A1) of 2 µM.
Work on `COc1ccc(-c2csc(-c3ccc(OC)cc3OC)n2)c(OC)c1` yielded an IC50 (Cytochrome P450 1A1) of 5.7 µM.
